# Experimental data: paper PMC11823609, “Advancements in the fight against globally distributed OXA-48 carbapenemase: evaluating the new generation of carbapenemase inhibitors” (Antimicrobial Agents and Chemotherapy, 2025)
# Chains of the proteins cited; added tags and fusions are not shown. Residues count along the entry.
# UniProt Q6XEC0, 23-265 limits assumed: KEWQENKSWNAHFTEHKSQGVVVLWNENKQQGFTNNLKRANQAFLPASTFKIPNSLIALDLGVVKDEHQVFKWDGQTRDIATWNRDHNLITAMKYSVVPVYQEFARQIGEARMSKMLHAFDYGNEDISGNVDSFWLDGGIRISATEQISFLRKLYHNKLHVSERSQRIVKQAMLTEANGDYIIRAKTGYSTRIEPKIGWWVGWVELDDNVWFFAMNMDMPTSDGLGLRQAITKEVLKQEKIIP
# Key:
# OXA-48 [1] = target: T1, OXA-48 (Klebsiella pneumoniae, UniProt Q6XEC0); assay: Steady-state inhibition constant (Ki app), nitrocefin reporter; assay type: biochemical; set-up: These primers amplified the blaOXA-48 gene without the signal peptide; GST (glutathione S-transferase, pGEX-6P-1) (N, cleaved yes); made in house; host or cells: E. coli BL21; settings: nitrocefin 300 µM reporter, 25 °C, pH 7.4
# OXA-48 [2] = target: T1, OXA-48; assay: Dissociation rate (koff) by jump dilution; t1/2 and Kd; assay type: biochemical; set-up: These primers amplified the blaOXA-48 gene without the signal peptide; GST (glutathione S-transferase, pGEX-6P-1) (N, cleaved yes); made in house; host or cells: E. coli BL21; settings: koff/kon
structure (smiles),measurement,setting,value
"O=C(NNC(=O)[C@@H]1CC[C@@H]2CN1C(=O)N2OS(=O)(=O)O)[C@@H]1CCCNC1 [Zidebactam, zidebactam]",pKi,OXA-48 [1],< 3.10
same,pKd,OXA-48 [2],5.86

# pKd, pKi: −log10 of the molar value.
